Measurements: patent US20250313563A1, “GLYCOGEN SYNTHASE KINASE 3 INHIBITORS AND USES THEREOF” (The Broad Institute, Inc., priority 2022, published 2025)

Protein sequences, listed by entry. Tags and fused reporters are not part of them.
UniProt P49840, whole entry: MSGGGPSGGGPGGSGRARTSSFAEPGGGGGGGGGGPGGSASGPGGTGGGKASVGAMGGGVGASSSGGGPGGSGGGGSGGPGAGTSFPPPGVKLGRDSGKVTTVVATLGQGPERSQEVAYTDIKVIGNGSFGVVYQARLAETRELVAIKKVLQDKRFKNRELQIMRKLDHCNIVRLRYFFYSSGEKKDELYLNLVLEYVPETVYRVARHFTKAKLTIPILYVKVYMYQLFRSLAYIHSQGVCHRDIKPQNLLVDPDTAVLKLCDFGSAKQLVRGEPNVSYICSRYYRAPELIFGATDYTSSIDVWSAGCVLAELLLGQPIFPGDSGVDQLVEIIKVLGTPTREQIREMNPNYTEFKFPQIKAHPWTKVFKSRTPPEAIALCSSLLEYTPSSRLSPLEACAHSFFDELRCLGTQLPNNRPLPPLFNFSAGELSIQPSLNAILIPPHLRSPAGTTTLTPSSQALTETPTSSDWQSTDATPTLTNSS
UniProt P49841, whole entry: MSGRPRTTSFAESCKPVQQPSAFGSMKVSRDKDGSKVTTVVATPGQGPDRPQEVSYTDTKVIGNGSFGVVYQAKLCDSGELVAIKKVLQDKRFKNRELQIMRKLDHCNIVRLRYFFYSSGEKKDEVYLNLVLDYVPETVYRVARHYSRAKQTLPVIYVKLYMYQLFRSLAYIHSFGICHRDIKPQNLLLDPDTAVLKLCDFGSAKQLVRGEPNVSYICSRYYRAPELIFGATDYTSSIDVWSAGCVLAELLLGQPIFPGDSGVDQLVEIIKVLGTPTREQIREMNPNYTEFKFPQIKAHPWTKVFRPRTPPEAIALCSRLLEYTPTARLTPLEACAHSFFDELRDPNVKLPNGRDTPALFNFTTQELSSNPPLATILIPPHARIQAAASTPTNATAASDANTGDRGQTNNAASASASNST

How the values were obtained:
[1] = biological target: GSK3α (GST-full length GSK3α) (Homo sapiens (Human), UniProt P49840); assay: GSK3α TR-FRET kinase assay; format: biochemical
[2] = biological target: GSK3b (GST-full length GSK3b) (Homo sapiens (Human), UniProt P49841); assay: GSK3b TR-FRET kinase assay; format: biochemical
[3] = read-out: GSK3-A TR-FRET BIOCHEMICAL (TR-FRET), IC50, 1 nM GSK3α, 4 μM ATP, 30 minute preincubation (Table 16)
[4] = read-out: GSK3-B TR-FRET BIOCHEMICAL (TR-FRET), IC50, 1 nM GSK3b, 2 μM ATP, 30 minute preincubation (Table 16)
[5] = read-out: GSK3-A TR-FRET BIOCHEMICAL (TR-FRET), GMean, IC50, 1 nM GSK3α, 4 μM ATP, 30 minute preincubation, geometric mean
[6] = read-out: GSK3-B TR-FRET BIOCHEMICAL (TR-FRET), GMean, IC50, 1 nM GSK3b, 2 μM ATP, 30 minute preincubation, geometric mean
[7] = read-out: GSK3-A (TR-FRET 1 mM ATP), GMean, IC50, 1 mM ATP, geometric mean
[8] = read-out: GSK3-B (TR-FRET 1 mM ATP), GMean, IC50, 1 mM ATP, geometric mean
[9] = read-out: GSK3-A TR-FRET BIOCHEMICAL (TR-FRET);, 1 nM GSK3α, 4 μM ATP, 30 minute preincubation, Table 16
[10] = read-out: GSK3-B TR-FRET BIOCHEMICAL (TR-FRET);, 1 nM GSK3b, 2 μM ATP, 30 minute preincubation, Table 16

Structure (SMILES)	IC50 [1, 3] [nM]	IC50 [2, 4] [nM]	IC50 [1, 5] [nM]	IC50 [2, 6] [nM]	also measured
CCC1(c2ccc(C)cc2)C2=C(CC(C)(C)CC2=O)Nc2n[nH]c(C(F)(F)F)c21 (centres unmarked)	< 100	< 100	–	–	–
CCC1(c2cccc(-c3ccnc(C)c3OC)c2)C2=C(CC(C)(C)NC2=O)Nc2n[nH]cc21 (centres unmarked)	–	–	< 100	100 to 1000	–
CCC1(c2cccc(N(C)C(=O)c3ccn(C)n3)c2)C2=C(CC(C)(C)CC2=O)Nc2n[nH]cc21 (centres unmarked)	< 100	100 to 1000	–	–	–
CC[C@]1(c2cccc(-c3ccnc4c(F)cccc34)c2)C2=C(CC(C)(C)NC2=O)Nc2n[nH]cc21	–	–	< 100	100 to 1000	IC50 [1, 7]: 100 to 1000 nM; IC50 [2, 8]: 1000 to 5000 nM
CC[C@@]1(c2cccc(-c3cc(C)ncc3OC)c2)C2=C(CC(C)(C)NC2=O)Nc2n[nH]cc21	< 100	100 to 1000	–	–	–
CC[C@]1(c2cccc(C(F)(F)F)c2)C2=C(CCC2=O)Nc2n[nH]cc21	1000 to 5000	> 5000	–	–	–
CC[C@@]1(c2cccc(Br)c2)C2=C(C[C@H](C(F)(F)F)CC2=O)Nc2n[nH]cc21	–	–	< 100	100 to 1000	–
CC[C@]1(c2cccc(N(C)c3ccnnc3)c2)C2=C(CC(C)(C)CC2=O)Nc2n[nH]cc21	100 to 1000	1000 to 5000	–	–	–
CC[C@]1(c2cccc(-c3ccnc(C)c3Cl)c2)C2=C(CC(C)(C)NC2=O)Nc2n[nH]cc21	–	–	< 100	< 100	IC50 [1, 7]: 100 to 1000 nM; IC50 [2, 8]: 1000 to 5000 nM
CC[C@]1(c2cccc(-c3c(F)cncc3F)c2)C2=C(CC(C)(C)NC2=O)Nc2n[nH]cc21	–	–	< 100	< 100	IC50 [1, 7]: 100 to 1000 nM; IC50 [2, 8]: 1000 to 5000 nM
CC[C@]1(c2cccc(N3CCOCC3)c2)C2=C(CC(C)(C)CC2=O)Nc2n[nH]c(C(F)(F)F)c21	–	–	< 100	< 100	IC50 [1, 7]: < 100 nM; IC50 [2, 8]: < 100 nM
CCC1(c2cccc(N3CCc4ccncc4C3)c2)C2=C(CC(C)(C)CC2=O)Nc2n[nH]cc21 (centres unmarked)	1000 to 5000	> 5000	–	–	–
Cn1ccc(S(=O)(=O)N2CCC[C@@]3(CC2)C2=C(CC(C)(C)CC2=O)Nc2n[nH]cc23)n1	–	–	–	–	IC50 [1, 9]: < 100 nM; IC50 [2, 10]: < 100 nM
CC[C@]1(c2cccc(-c3ccnc4ccc(OC)cc34)c2)C2=C(CC(C)(C)NC2=O)Nc2n[nH]cc21	–	–	< 100	< 100	–
CC[C@@]1(c2cccc(-c3ccncc3C)c2)C2=C(C[C@]3(CCCOC3)NC2=O)Nc2n[nH]cc21	–	–	100 to 1000	1000 to 5000	–
CCC1(c2cccc(-c3cc(C)ncc3C)c2)C2=C(CC(C)(C)CC2=O)Nc2n[nH]c(C)c21 (single isomer, unassigned)	< 100	< 100	–	–	–
CC(C)(C)Cc1[nH]nc2c1[C@]1(CCc3ccc(F)cc31)C1=C(CC(C)(C)CC1=O)N2	–	–	100 to 1000	< 100	–
CC[C@@]1(c2cccc(-c3cc(C)nn3C)c2)C2=C(CC(C)(C)CC2=O)Nc2n[nH]c(C(F)(F)F)c21	–	–	–	–	IC50 [1, 7]: < 100 nM; IC50 [1, 9]: < 100 nM; IC50 [2, 8]: 100 to 1000 nM; IC50 [2, 10]: < 100 nM
CC(C)(C)Cc1[nH]nc2c1C1(CCCc3ccccc31)C1=C(CC(C)(C)CC1=O)N2 (centres unmarked)	–	–	100 to 1000	< 100	–
CC(C)(C)Cc1[nH]nc2c1C1(CCc3c(F)cccc31)C1=C(CC(C)(C)CC1=O)N2 (centres unmarked) [Compound 791256]	–	–	100 to 1000	< 100	–
CC1(C)CC2=C(C(=O)N1)[C@@](C)(c1cccc(S(C)(=O)=O)c1)c1c(n[nH]c1C1CC1)N2	–	–	–	–	IC50 [1, 7]: < 100 nM; IC50 [2, 8]: 100 to 1000 nM
CC[C@]1(c2cccc(-c3ccnn3C)c2)C2=C(CC(C)(C)CC2=O)Nc2n[nH]cc21	< 100	100 to 1000	–	–	–
CC[C@]1(c2cccc(-c3cn(C)nc3C)c2)C2=C(CC(C)(C)NC2=O)Nc2n[nH]c(F)c21	–	–	1000 to 5000	> 5000	–
CC[C@@]1(c2cccc(Cc3ncccc3C(F)(F)F)c2)C2=C(CC(C)(C)CC2=O)Nc2n[nH]cc21	–	–	–	–	IC50 [1, 9]: < 100 nM; IC50 [2, 10]: 100 to 1000 nM
CCC1(c2cccc(N3CCCC3)c2)C2=C(CC(C)(C)NC2=O)Nc2n[nH]c(C)c21 (centres unmarked)	–	–	< 100	100 to 1000	–
CCC1(c2cccc(N(C)C(=O)COC)c2)C2=C(CC(C)(C)CC2=O)Nc2n[nH]cc21 (centres unmarked)	< 100	100 to 1000	–	–	–
CC[C@]1(c2cccc(N(C)c3nccc(OC)n3)c2)C2=C(CC(C)(C)CC2=O)Nc2n[nH]cc21	–	–	–	–	IC50 [1, 9]: 100 to 1000 nM; IC50 [2, 10]: 1000 to 5000 nM
CC[C@@]1(c2cccc(-c3cnn(C)c3C)c2)C2=C(CC(C)(C)CC2=O)Nc2n[nH]c(C)c21	100 to 1000	1000 to 5000	–	–	–
CC[C@]1(c2cccc(Br)c2)C2=C(C[C@@H](C)CC2=O)Nc2n[nH]cc21	–	–	< 100	100 to 1000	–

Where two headings read alike, the source gives them in different places.
